Values of other authors, collected in publication PMC5437670 (Journal of the American Chemical Society, 2017).

Target: recombinant human GAA (Myozyme), lysosomal α-glucosidase (Homo sapiens, UniProt P10253)
Conditions: read-out: app IC50 GAA; literature values; cited from earlier work

In the case of `OC[C@@H]1[C@@H](O)[C@H](O)[C@@H](O)CN1CCCCCOCC12CC3CC(CC(C3)C1)C2` [AMP-DNM (MZ-21), reference compound], the IC50 is listed as 400 nM.
